Here are results for one compound from US20160022683A1, “COMBINATIONS OF BRUTON'S TYROSINE KINASE INHIBITORS AND CYP3A4 INHIBITORS” (PHARMACYCLICS LLC, priority 2013, published 2016).

The conditions of this series: Ibrutinib in plasma.

Read-outs that look alike come from different tables or passages of the source.

With `C=CC(=O)N1CCC[C@@H](n2nc(-c3ccc(Oc4ccccc4)cc3)c3c(N)ncnc32)C1` [Ibrutinib, 1-((R)-3-(4-amino-3-(4-phenoxyphenyl)-1H-pyrazolo[3,4-d]pyrimidin-1-yl)-piperidin-1-yl)prop-2-en-1-one], the λz runs as follows: (Day 1, 120 mg Ibrutinib alone, n=12, geom. mean) 0.0941 h⁻¹; (Day 1, 120 mg Ibrutinib alone, n=12, mean) 0.112 h⁻¹; (Day 1, 120 mg Ibrutinib alone, n=12, median) 0.0806 h⁻¹; (Day 7, 40 mg Ibrutinib + ketoconazole, geom. mean) 0.116 h⁻¹; (Day 7, 40 mg Ibrutinib + ketoconazole, mean) 0.124 h⁻¹; (Day 7, 40 mg Ibrutinib + ketoconazole, median) 0.104 h⁻¹.
